Measured values published in US12171768B2, “IRAK4 degraders and uses thereof” (priority 2021, dated 2024).
Read-outs that look alike come from different tables or passages of the source.

What was measured:
[1] = rat NOAEL, relative to predicted human AUC
[2] = dog NOAEL, relative to predicted human AUC

## Cn1c(=O)n([C@@H]2CCC(=O)NC2=O)c2cccc(C#CCOC3CCN(C[C@H]4CC[C@H](n5cc(NC(=O)c6cnn7ccc(N8C[C@H]9C[C@@H]8CO9)nc67)c(C(F)F)n5)CC4)CC3)c21 [Compound A, 5-((1R,4R)-2-oxa-5-azabicyclo[2.2.1]heptan-5-yl)-N-(3-(difluoromethyl)-1-((1r,4R)-4-((4-((3-(1-(2,6-dioxopiperidin-3-yl)-3-methyl-2-oxo-2,3-dihydro-1H-benzo[d]imidazol-4-yl)prop-2-yn-1-yl)oxy)piperidin-1-yl)methyl)cyclohexyl)-1H-pyrazol-4-yl)pyrazolo[1,5-a]pyrimidine-3-carboxamide]
[1]
  Exposure safety margin for the starting dose of 25 mg based on AUC at NOAEL: 79 fold
[2]
  Exposure safety margin for the starting dose of 25 mg based on AUC at NOAEL: 159 fold
